Source: PubChem BioAssay
Rows were chosen to be rich in hits. Some 1.1% of all compounds tested hit in one or more screens of this group.
miR-21 FLuc: miR-21 reporter, rising signal | 340,000 tested, under 10 active | AID 2288 | HeLa miR-21 FLuc reporter, luciferase, 48 h | Potency, µM (titrated, usually from 38.3 µM), for inactives: at the highest dose reporter change, positive = more light; active = well fitted rising curve with a large enough effect; inconclusive = small, poorly fitted or top-dose-only effect; inactive = no such curve, though single readings can be large or run the other way;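 further: % of control where 0% means no effect; miR-21 action dims this reporter so a rising signal means less miR-21 action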
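Compounds were titrated across several concentrations (up to approximately 40 uM) and incubated 48 hours with HeLa miR-21-FLuc reporter cells (miR-21 target sequence downstream of FLuc, endogenous miR-21). Readout was firefly luciferase luminescence after lytic detection reagent.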
TrxR1 substrate: substrates of rat thioredoxin reductase 1. Potency, µM (series often up to 114 µM), for inactives: at the highest dose activity change, negative = substrate turnover. O89049. purified TrxR1 substrate turnover, NADPH consumption readout. 390,000 compounds, 0.01% hits. AID 588456; further: potency means the concentration at half of the fitted maximal effect; on the % scale 0 is the no-effect control and ±100 the full control effect; nearly all actives have a fitted effect of over 50% in size
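Rat TrxR1, dispensed at 90 nM, was prereduced with 400 uM NADPH (final) for 5 min at ~22 deg C, then incubated with compound 15 min before 400 uM selenite. A first-read NADPH fluorescence drop versus no-compound background flagged substrates.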
GALK inh: blocks human galactokinase activity; P51570; Purified GALK, Kinase-Glo residual ATP luminescence; Potency, µM (doses to about 57.5 µM), without a hit: at the highest dose activity change, negative = inhibition, usual class: inhibitors; 270,000 compounds, 0.007% hits; further: potency means the concentration at half of the fitted maximal effect; on the % scale 0 is the no-effect control and ±100 the full control effect
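Compounds were pin-transferred into ATP buffer (35 uM final), then GALK plus galactose (5 nM, 100 uM final) was added. After 1 h at room temperature, Kinase-Glo Plus was added and luminescence read after 10 min.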
rTrxR1 inhibitor: rat TrxR1 inhibition | Potency, µM (series often up to 114 µM), inactives show at the top dose activity change, negative = inhibition, usual class: inhibitors | 390,000 compounds, 1% hits | recombinant rTrxR1, NADPH fluorescence consumption, selenite substrate | AID 588453; further: potency means the concentration at half of the fitted maximal effect; on the % scale 0 is the no-effect control and ±100 the full control effect; nearly all actives have a fitted effect of over 65% in size
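Rat TrxR1 (90 nM in the dispensed reagent) was pre-reduced with 400 uM NADPH for 5 min at room temperature, then incubated with compound for 15 min. After 400 uM selenite was added, NADPH fluorescence (Ex 340/Em 450 nm) was followed for 8 min.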
PINK1 expr mod: PINK1 expression modulation. PINK1 immunofluorescence, high-content cytometry, 24 h. Potency, µM (doses to about 76.6 µM), for the others: at the top dose activation (PINK1 increase), most hits filed as activators. 410,000 compounds, 0.2% hits. AID 624263; active means well fitted activation curve with a large enough effect; inconclusive means small, poorly fitted or top-dose-only effect; cell line not stated here; further: potency means the concentration at half of the fitted maximal effect; % of control where 0% means no effect; nearly all actives have a fitted effect of over 65% in size
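A stable cell line was treated with compounds at 5 concentrations for 24 hours, with CCCP as control. PINK1 levels and mitochondrial localization were measured by immunofluorescence with mitochondrial, cell and nuclear markers after fixation, read by laser-scanning cytometry.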
* marks the source's active call; other numbers are inactive results; i = inactive; ? = inconclusive; . = not tested or not shown; [ ] = remark or other dose. Unless noted, the call rests on the fitted dose curve; in most records, active means well fitted curve in the direction sought with a large enough effect; inconclusive means small, poorly fitted or top-dose-only effect, or another doubt; inactive means no such curve, though single readings can be large; an effect the other way counts as inactive or inconclusive.

Second line of a record – GALK inh | PINK1 expr mod | TrxR1 substrate | miR-21 FLuc | rTrxR1 inhibitor
> COc1cccc(CN2c3ccc(Br)cc3C(=O)CS2(=O)=O)c1
→ . | 3.6% | -2.4% | . | 2.24µM*
> CCN(CC)CCNC(=O)C1c2cc(OC)c(OC)cc2C(=O)N2CCc3ccccc3C12 (stereo not drawn)
→ 4.4% | -0.6% | 1.9% | -7.3% | 35.5µM*
> COC(=O)C1=C[C@@H](C(=O)OC)[C@@H]2C3=C(C(=O)C2(C)C)[C@H](C)n2c(=O)n(-c4ccccc4)c(=O)n2[C@@H]3C1
→ . | 0.7% | 10.4% | . | 56.2µM*
> COc1cccc2cc(-c3nc(Nc4cccc(C)c4)sc3C)c(=O)oc12
→ . | 3.6% | 1.3%[57.1 µM] | -7.5% | 13.3%[57.1 µM]
> COc1ccc(C(=O)/C(C#N)=N/Nc2ccc([N+](=O)[O-])cc2)cc1
→ 3.8% | 4.47µM* | -12.7% | 22.8% | -8.2%
> COc1ccc(C(=O)/C(C#N)=N/Nc2ccccc2[N+](=O)[O-])cc1
→ 1.4% | ? | -10.5% | 23.4% | -18.3%
> COCCCNC(=O)c1ccc(-n2c(-c3ccccc3)cc3c2CCC(C)C3)cc1 (stereo not drawn)
→ . | -0.7% | 2.2% | -2.2% | 17.3%
> Cc1c(NC2=C(Cl)C(=O)N(c3ccccc3Cl)C2=O)c(=O)n(-c2ccccc2)n1C
→ . | 4.3% | 9.4% | -17.0% | 20µM*
> O=C1C(Cl)=C(N2CCCCCC2)C(=O)N1c1ccccc1Cl
→ -1.5% | 0.9% | 0.8% | 4.8% | 23.4%
> Cc1cc(=O)[nH]c(Nc2c(C)n(C)n(-c3ccccc3)c2=O)n1
→ -5.2% | 1.1% | 6.4%[57.1 µM] | -12.3% | 19.2%[57.1 µM]
> C=CCNC1=C(Cl)C(=O)N(c2ccccc2Cl)C1=O
→ -1.4% | 3.3%[38.3 µM] | -6.5% | 1.5% | 25.1µM*
> COc1ccccc1NC(=O)Cc1csc(NC(=S)Nc2ccc(C)cc2)n1
→ -5.7% | -7.3%[38.3 µM] | 3.8%[57.1 µM] | 14.0% | 8.91µM*
> CCC(=O)Nc1nc(CC(=O)Nc2ccccc2OC)cs1
→ 2.5% | -1.9% | -8.6%[57.1 µM] | -21.7% | 7.9%[57.1 µM]
> CCN1CCC(O)(/C=C/c2ccc(C(C)C)cc2)C(C(=O)/C=C/c2ccc(C(C)C)cc2)C1 (stereo not drawn)
→ . | -2.0% | -13.6% | . | 7.94µM*
> O=C1NN(c2ccccc2)C(=O)C1=Cc1ccccc1
→ . | 1.2% | . | . | .
> O=C1NN(c2ccccc2)C(=O)/C1=C\c1ccccc1
→ -3.8% | -1.6% | -4.7% | -3.7% | 28.2µM*
> O=C1NN(c2cccc(Br)c2)C(=O)/C1=C\c1ccccc1
→ -12.8% | 2.7% | ? | -4.0% | 11.2µM*
> COC(=O)Cc1c(C)c2ccc3c(c2oc1=O)CN(Cc1ccccc1Cl)CO3
→ . | 0.3% | i | -0.4% | ?
> COC(=O)Cc1c(C)c2ccc3c(c2oc1=O)CN(Cc1ccc(C)cc1)CO3
→ . | -0.7% | i | 2.4% | 35.5µM*
> COC(=O)Cc1c(C)c2ccc3c(c2oc1=O)CN(Cc1ccccc1OC)CO3
→ . | -0.9% | i | -5.3% | 39.8µM*
> Cc1ccc(NC(=O)c2cc(S(=O)(=O)N3CCCCC3)c[nH]2)cc1N(C)C
→ . | 0.8% | 19.7% | -5.2% | 22.6%
> O=C(Nc1cccc(NC(=O)c2ccc(-c3ccc(Br)cc3)o2)c1)c1ccco1
→ -4.0% | . | 39.6% | 0.9% | 79.4µM*
> O=C(NCc1ccccc1)c1cccc(NC(=O)c2ccco2)c1
→ 2.2% | -1.5% | -8.1% | 7.3% | -9.5%
> Cc1ccc(C(=O)NCc2ccco2)cc1S(=O)(=O)Nc1cccc(C)c1C
→ 1.9% | 9.5%[38.3 µM] | -5.0% | 0.1% | 79.4µM*
> O=C(NCc1ccco1)c1cccc(NC(=O)c2ccco2)c1
→ -1.9% | -2.5%[38.3 µM] | 2.4% | 3.7% | 50.1µM*
> Cc1ccccc1NS(=O)(=O)c1cc(C(=O)NCc2ccco2)ccc1C
→ -0.4% | -1.0%[38.3 µM] | 2.7% | -3.7% | -47.1%[57.1 µM]
> O=C(Nc1cccc(-c2nc3ccccc3o2)c1)c1ccc(-c2ccc(Br)cc2)o1
→ . | 4.2% | 34.9% | -4.0% | 10.5%
> O=S(=O)(NCCc1cn(S(=O)(=O)c2ccccc2)c2ccccc12)c1ccccc1
→ . | -1.2% | 3.5% | . | -2.6%
> CCOC(=O)c1cc(S(=O)(=O)NCc2ccc(OC)cc2)[nH]n1
→ . | -1.5% | 8.5%[57.1 µM] | -2.9% | 23.3%[57.1 µM]
> CN1C2CCC1/C(=C\c1ccc(F)cc1)C(=O)/C2=C/c1ccc(F)cc1
→ -0.1% | 6.7% | -11.4% | -6.8% | -17.1%
> C=CC(=O)N1C/C(=C/c2ccc(F)cc2)C(=O)/C(=C\c2ccc(F)cc2)C1
→ . | -0.9% | -8.4% | . | 25.1µM*
> COCC1CCCN(Cc2ccc3c(c2)CN(C(=O)c2cn4ccc(C)cc4n2)CCO3)C1 (stereo not drawn)
→ . | 0.8% | . | . | .
> COC1=CC(=O)c2ccccc2C1=O
→ . | 20.4% | -6.4% | . | ?
> COC1=CC(=O)C=C(OC)C1=O
→ . | 0.0% | -23.0% | . | 31.6µM*
> Cc1c(C(=O)N2CCOc3ccccc3C2)sc2ncnc(NCCCN3CCOCC3)c12
→ . | 0.0% | . | . | .
> CN(NS(=O)(=O)c1ccc(Br)cc1)c1nc(C(F)(F)F)nc2ccccc12
→ -0.2% | 15.8µM* | -1.6% | 3.7% | 10.6%
> CC(=O)c1cnc(N(C)C)s1
→ -1.7% | -2.1% | -10.3% | -0.9% | -2.0%
> O=C1C(Cl)=C(N2CCCCC2)C(=O)C(Cl)=C1c1cnc(N2CCCCC2)s1
→ -1.0% | 0.6% | -2.9% | -16.6% | 1.78µM*
> CN(C)c1ncc(C2=C(Cl)C(=O)C(N3CCCC3)=C(Cl)C2=O)s1
→ . | 1.4%[38.3 µM] | 1.0% | . | 2.51µM*
> O=C(NC(c1cccnc1)C(F)(F)F)c1cnn(-c2nccc(-c3cccs3)n2)c1C1CC1 (stereo not drawn)
→ . | 2.2% | . | . | .
> Cc1ccc(OCC(=O)Nc2ccc3nc(SCC(=O)N4CCCC4)sc3c2)cc1
→ . | 7.8% | -2.9% | -3.4% | 18.1%
> O=[N+]([O-])c1ccc(-c2ccn[nH]2)o1
→ 2.6% | 2.5% | 2.3%[57.1 µM] | -1.1% | 3.55µM*
> COc1ccc(NC(=O)c2cccc(N3C(=O)c4cccc([N+](=O)[O-])c4C3=O)c2)cc1
→ 4.8% | -0.5% | -8.9% | 6.4% | -8.1%
> COc1ccc(/C=C2\C(=O)N(c3c(Cl)cc(Cl)cc3Cl)N=C2NC(=O)c2cccc([N+](=O)[O-])c2)cc1
→ -0.2% | 4.5% | -14.5% | -3.4% | 4.47µM*
> C=C1C(=O)C=C2CN(C(=O)c3ccccc3)[C@@](Cc3ccc(F)cc3)(C(=O)OC)[C@@H]12
→ . | 6.9% | -3.9% | 27.2% | 8.91µM*
> C=C1C(=O)CC2=C1[C@](Cc1ccc(F)cc1)(C(=O)OC)N(C(=O)c1ccccc1)C2
→ . | 6.8% | . | . | .
> CCc1nc2ccccc2n1CCCCOc1ccc(Cl)cc1
→ . | ? | -7.0% | 27.6% | 7.5%
> Cc1ccc(NC(=O)CC(=O)c2ccc([N+](=O)[O-])cc2)cc1S(=O)(=O)Nc1cccc(Cl)c1
→ -0.7% | 31.6µM* | -4.9% | ? | -1.0%
> O=C(c1cnsn1)N1CCOc2ccc(C(O)C(c3ccccc3)c3ccccc3)cc2C1 (stereo not drawn)
→ . | 1.9% | . | . | .
> CCOc1ccc(NC(=O)c2c(NCc3sccc3C)sc3c2CCCCC3)cc1
→ . | 2.8% | 1.1%[57.1 µM] | -22.5% | ?

Exported as tab-separated lines: entries from further up.
Compound	GALK inh	PINK1 expr mod	TrxR1 substrate	miR-21 FLuc	rTrxR1 inhibitor
Cc1c(NC2=C(Cl)C(=O)N(c3ccccc3Cl)C2=O)c(=O)n(-c2ccccc2)n1C	.	4.3%	9.4%	-17.0%	20µM*
O=C1C(Cl)=C(N2CCCCCC2)C(=O)N1c1ccccc1Cl	-1.5%	0.9%	0.8%	4.8%	23.4%
Cc1cc(=O)[nH]c(Nc2c(C)n(C)n(-c3ccccc3)c2=O)n1	-5.2%	1.1%	6.4%[57.1 µM]	-12.3%	19.2%[57.1 µM]
C=CCNC1=C(Cl)C(=O)N(c2ccccc2Cl)C1=O	-1.4%	3.3%[38.3 µM]	-6.5%	1.5%	25.1µM*
COc1ccccc1NC(=O)Cc1csc(NC(=S)Nc2ccc(C)cc2)n1	-5.7%	-7.3%[38.3 µM]	3.8%[57.1 µM]	14.0%	8.91µM*
